In patent US8158372B2, “Agonists of a bitter taste receptor and uses thereof” (Deutsches Institut für Ernährungsforschung Potsdam-Rehbrücke, priority 2004, dated 2012) one finds response data, which are given here for one substance.

Protein sequences, listed by entry. Tags and fused reporters are not part of them. Lines headed by an entry give the natural chain unless they say otherwise; changes in a name come on top.
UniProt Q9NYV8: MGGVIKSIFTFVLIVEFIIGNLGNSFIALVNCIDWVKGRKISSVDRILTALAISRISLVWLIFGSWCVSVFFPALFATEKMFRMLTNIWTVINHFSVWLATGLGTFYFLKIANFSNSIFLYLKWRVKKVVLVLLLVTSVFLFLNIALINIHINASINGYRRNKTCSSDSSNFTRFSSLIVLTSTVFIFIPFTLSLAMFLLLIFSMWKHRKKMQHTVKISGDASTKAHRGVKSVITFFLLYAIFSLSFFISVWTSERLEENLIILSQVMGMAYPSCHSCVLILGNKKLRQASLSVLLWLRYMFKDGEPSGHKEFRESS

This assay addresses hTAS2R14 (Homo sapiens, UniProt Q9NYV8). In words: hTAS2R14 ligand screening, FLIPR calcium assay in transfected HEK-293T Gα16gust44 cells. The note with it: conc 500 μM.

Regarding D-(+)-sucrose octaacetate, the response entry was “n.r”.
